EC50 of the luciferase signal upon stimulation with FSH (CHO FSH-R/CRE-luc clone) data for one substance are collected here from US20030036181A1.

Amino acid sequences for entries named in this document (tags omitted). Residues count along the entry.
UniProt P23945, 18-695: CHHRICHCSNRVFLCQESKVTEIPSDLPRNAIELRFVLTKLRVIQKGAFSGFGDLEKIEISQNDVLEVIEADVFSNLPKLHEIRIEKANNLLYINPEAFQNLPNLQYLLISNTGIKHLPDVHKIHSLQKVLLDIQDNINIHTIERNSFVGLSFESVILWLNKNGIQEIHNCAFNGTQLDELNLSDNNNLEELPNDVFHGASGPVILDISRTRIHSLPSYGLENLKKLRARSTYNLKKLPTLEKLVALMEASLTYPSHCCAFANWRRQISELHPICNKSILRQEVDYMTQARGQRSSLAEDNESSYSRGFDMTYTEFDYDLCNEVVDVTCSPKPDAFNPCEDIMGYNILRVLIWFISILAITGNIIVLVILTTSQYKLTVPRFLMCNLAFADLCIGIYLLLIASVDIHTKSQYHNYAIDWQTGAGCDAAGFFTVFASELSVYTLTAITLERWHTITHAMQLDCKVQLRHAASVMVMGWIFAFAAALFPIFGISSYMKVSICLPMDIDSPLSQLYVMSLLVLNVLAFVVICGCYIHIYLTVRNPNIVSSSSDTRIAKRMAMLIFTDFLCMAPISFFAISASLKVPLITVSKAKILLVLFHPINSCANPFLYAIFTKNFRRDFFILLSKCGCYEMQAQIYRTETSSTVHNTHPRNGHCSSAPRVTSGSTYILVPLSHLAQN

The test concerns the target human FSH receptor, stably expressed on CHO K1 cells (CHO FSH-R/CRE-luc cell line) (human) (UniProt P23945). As to the kind of experiment: cell-based or functional assay.

“FSH (preparation used to stimulate the CHO FSH-R/CRE-luc clone) (from UniProt P01215 25-116; P01225 19-129) (ligand)” had an EC50 of the luciferase signal upon stimulation with FSH (CHO FSH-R/CRE-luc clone) of 0.01 IU/ml.
